Article PMC6272295, “In Vitro Neuroprotective Activities of Compounds from Angelica shikokiana Makino” (Molecules, 2015)

Chains of the proteins cited; added tags and fusions are not shown. Residues count along the entry.
UniProt O42275, 24-633: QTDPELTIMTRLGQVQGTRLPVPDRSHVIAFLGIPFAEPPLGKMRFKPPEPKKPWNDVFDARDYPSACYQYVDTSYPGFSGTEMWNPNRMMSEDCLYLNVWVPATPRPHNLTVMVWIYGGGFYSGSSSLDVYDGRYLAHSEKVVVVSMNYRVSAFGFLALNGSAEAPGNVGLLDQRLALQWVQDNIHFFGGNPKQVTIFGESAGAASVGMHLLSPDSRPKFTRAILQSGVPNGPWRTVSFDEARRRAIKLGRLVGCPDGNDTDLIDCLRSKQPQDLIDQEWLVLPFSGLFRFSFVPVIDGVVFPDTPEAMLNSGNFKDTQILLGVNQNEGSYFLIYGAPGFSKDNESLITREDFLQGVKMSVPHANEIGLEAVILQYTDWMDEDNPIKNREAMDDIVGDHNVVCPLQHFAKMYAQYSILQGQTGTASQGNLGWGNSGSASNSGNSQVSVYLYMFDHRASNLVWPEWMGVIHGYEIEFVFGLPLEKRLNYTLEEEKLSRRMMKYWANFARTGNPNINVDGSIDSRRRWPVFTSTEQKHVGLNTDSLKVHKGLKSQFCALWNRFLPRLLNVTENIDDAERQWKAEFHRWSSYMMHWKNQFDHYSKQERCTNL

Biological target: T1, AChE from Electrophorus electricus (Electrophorus electricus, UniProt O42275)
T1 construct: purchased Sigma (St. Louis, MO, USA)
Type: biochemical
Experimental: AChEI activity was measured using Ellman’s method. AChE hydrolyzes the substrate ACTI into acetate and thiocholine. In a neutral and alkaline medium; thiocholine reacts with DTNB to give yellow colored 2-nitro-5-thiobenzoate, which can be detected spectrophotometrically at 405 nm. Briefly, in a 96-well plate, 25 µL of 15 mM ACTI, 125 µL of 3 mM DTNB in buffer B (50 mM Tris HCl, pH = 8, 0.1 M NaCl, 0.02 M MgCl2·6H2O), 50 µL of buffer A (50 mM Tris-HCl, PH 8, 0.1% BSA) and 25 µL of tested sample (dissolved in 25% DMSO) were mixed, and the absorbance was measured using a microplate reader (Biotek, Winooski, VT, USA) at 405 nm every 16 s ten times. Then, 25 µL of AChE (0.25 U/mL in buffer A) was added and the absorbance was measured ten times every 16 s. A solution of 25% DMSO was used as a negative control. Absorbance was plotted against time and enzyme activity was calculated from the slope of the line so obtained and expressed as a percentage compared to an assay using a buffer without any inhibitor. Fractions were tested at 400 µg/mL. To avoid any increase in absorbance due to the color of the compounds or spontaneous hydrolysis of the substrate, the absorbance before addition of the enzyme was subtracted from the absorbance after adding the enzyme. […]

## kaempferol-3-O-rutinoside [Kaempferol-3-O-rutinoside (14)]
read-out: AchEI IC50, summary Table 4
  IC50: 50.4 ± 0.4 µM
read-out: IC50 in the AChEI assay, Ellman's method
  IC50: 50.4 ± 0.4 µM

Like-named read-outs stand apart in the source and are kept apart here.
